According to patent US20210122804A1, “PEPTIDE LIGANDS FOR BINDING TO CD38” (BicycleTx Limited, priority 2018, published 2021):
Where two headings read alike, the source gives them in different places.

Amino acid sequences for entries named in this document (tags omitted). Residues count along the entry.
UniProt P28907, whole entry: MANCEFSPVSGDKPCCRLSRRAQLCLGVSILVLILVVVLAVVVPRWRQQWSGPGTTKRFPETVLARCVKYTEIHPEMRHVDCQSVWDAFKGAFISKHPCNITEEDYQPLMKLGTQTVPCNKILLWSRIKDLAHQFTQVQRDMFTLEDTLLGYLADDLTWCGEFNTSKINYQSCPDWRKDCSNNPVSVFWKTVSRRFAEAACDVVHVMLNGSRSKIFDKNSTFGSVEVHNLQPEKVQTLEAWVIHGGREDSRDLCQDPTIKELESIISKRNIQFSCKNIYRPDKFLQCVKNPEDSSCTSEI
UniProt P28907, 43-300 limits assumed: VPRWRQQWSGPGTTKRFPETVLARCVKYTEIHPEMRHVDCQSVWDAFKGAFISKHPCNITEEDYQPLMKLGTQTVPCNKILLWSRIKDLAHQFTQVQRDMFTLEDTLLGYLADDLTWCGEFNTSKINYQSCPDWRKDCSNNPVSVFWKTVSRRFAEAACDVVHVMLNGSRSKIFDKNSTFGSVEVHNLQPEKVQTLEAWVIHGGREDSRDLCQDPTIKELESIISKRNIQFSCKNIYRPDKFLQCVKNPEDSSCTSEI

Columns and labels:
human CD38 [1] = target: human CD38 (Homo sapiens, UniProt P28907); assay: CD38 Competition Binding Assay (fluorescence polarisation)
Method: CD38 Competition Binding Assay Affinity of various bicycle peptide compounds for human CD38 (Ki) was determined using a fluorescence polarisation assay, using the method reported by Lea et al (Expert Opin Drug Discov. 2011 6(1): 17-3) and using the following fluorescently labelled peptides ACTPCADFPIWGCA-Sar6-K(F1) for TBMB derivatives and ACYWNPFTGCYTCA-Sar6-K(F1) for TATA derivatives where Fl is a fluorescein molecule.

human CD38 [2] = target: T1, human CD38 (human, UniProt P28907 43-300, limits assumed); assay: fluorescence polarisation competition; tracer m10
T1 construct: construct used is not described; also called hCD38

[3] = Table 2, reference bicycle ligands, TBMB or TATA scaffold (tracer differs by scaffold), evaluated as described in GB1800610.6
[4] = Table 1, TBMB derivatives, average of two measurements, tracer ACTPCADFPIWGCA-Sar6-K(F1), read-out: Ki

Row | Molecule | Ki (human CD38 [1]; [3]) [nM] | also measured
1 | ACFELDGDCFDWTHECA [66-08-34-N001] | 1620 | 
2 | ACFHLDGECFDYEHECA [66-08-20-N001] | 2160 | 
3 | ACYWNPFTGCYACDST [66-50-15-T01-N001] | 104 ± 90.2 | 
4 | ACYWNPFTGCYSCA [66-50-02-N001] | 97.8 ± 22.7 | 
5 | ARNECFWNPFTGCYSCA [66-50-17-T02-N001] | 260 ± 161 | 
6 | ACYWNPFTACYVCDVP [66-50-19-T001-N001] | 575 ± 220 | 
7 | Ac-CFWLDGECFDWNHECA-Sar6-K [66-08-01-N005] | 211 | 
8 | ASDNCFWNPFTGCYSCA [66-50-17-T01-N001] | 358 ± 187 | 
9 | ACMWNPFTGCYACA [66-50-08-N001] | 158 ± 68.2 | 
10 | Ac-CFWLDGECFDWNHEC [66-08-01-N004] | 99 | 
11 | ACFRLDDECFDWTHECA [66-08-28-N001] | 1160 | 
12 | ACYWNPFTACYSCTEN [66-50-19-T002-N001] | 315 ± 4.9 | 
13 | ACYWNPFTGCYACEAD [66-50-15-T02-N001] | 179 ± 125 | 
14 | ACFQLDGECFDTSHECA [66-08-24-N001] | 2970 | 
15 | ACFTLDGACFDLDGECA [66-08-31-N001] | 821 | 
16 | ACYWNPFTACFSCDDD [66-50-18-T01-N001] | 77.5 ± 51.9 | 
17 | ACYWNPFTACWSCDTS [66-50-22-T001-N001] | 182 ± 46.1 | 
18 | ACIPCADFPIWGCA [66-03-16-N001] | 114 | 
19 | ACYWNPFMGCYTCA [66-50-01-N001] | 393 ± 141 | 
20 | (B-Ala)-Sar10-ACVPCADFPIWYC [66-03-00-N006] | 43.7 ± 14.7 | 
21 | ACYWNPFMGCYVCA [66-50-14-N001] | 940 ± 285 | 
22 | ACVPCADFPISVCA [66-03-27-N003] | 143 ± 27.4 | 

Row | Molecule | Ki (human CD38 [1]; [3]) [nM] | also measured
23 | ACIRYGDICYDPDHSCA [66-17-01-N001] | 260 | 
24 | ACFWLDGECFDWNHECA [66-08-01-N001] | 43.3 ± 7.69 | 
25 | ACIPCADFPIFTCA [66-03-29-N003] | 139 ± 25.5 | 
26 | ACFSLDGACFDWTHECA [66-08-26-N001] | 987 | 
27 | ACVHCADFPIWGCA [66-03-03-N001] | 61 ± 1.96 | 
28 | ACLYNPFTGCYDCA [66-50-09-N001] | 749 ± 64.7 | 
29 | ACVPCADFPIWWCA [66-03-00-N005] | 110 ± 51 | 
30 | ACFTLDGECFDVNRECA [66-08-13-N001] | 905 | 
31 | [Ac]ACVP[Dap(Me)]ADFPIWYC [BCY00009247] |  | Ki (human CD38 [1]; [4]): > 9400 nM
32 | ACFYLDGTCFDWTHECA [66-08-41-N001] | 1200 | 
33 | ACIPCADFPISVCA [66-03-24-N003] | 170 ± 20.6 | 
34 | ACVMCADFPIWGCA [66-03-05-N001] | 155 | 
35 | ACFELDGECFSFPGTCA [66-08-50-N001] | 196 ± 99 | 
36 | ACTPCADFPILDCA [66-03-10-N001] | 1700 | 
37 | ACFELDGECFSWPYPCA [66-08-51-N001] | 4750 ± 490 | 
38 | ACFELDGNCFDWTHECA [66-08-18-N001] | 980 | 
39 | ACFWLDHECFDWTHECA [66-08-15-N001] | 258 | 
40 | ACFHLDGECFDLAKTCA [66-08-45-N001] | 8190 | 
41 | ACIRYGDICFHPDYTCA [Example 66-17-N001] | 1170 | 
42 | RHSNYCNFLCDDLCA-Sar6-K(Biotin) [66-20-00-T001-N001] | 2920 | 
43 | ACDFTMPCPNWNACA [66-05-09-N001] | 3950 | 
44 | ACFSLDGECFDIASECA [66-08-22-N001] | 1050 | 

Row | Molecule | Ki (human CD38 [1]; [3]) [nM] | also measured
45 | ACDYCVRLGLTGCA [Example 66-09-N001] | 1260 | 
46 | ACYWNPFAACYDCA [66-50-06-N001] | 935 | 
47 | [Ac]ACVPCADFPIWY[Dap(Me)] [BCY00009248] |  | Ki (human CD38 [1]; [4]): 698 nM
48 | ACFELDGSCFDFDHECA [66-08-09-N001] | 611 | 
49 | Ac-CFWLDGECFDWNHECA-Sar6-K(DOTA) [66-08-01-N016] | 51 | 
50 | ACFTLDGECFDLDGWCA [66-08-48-N001] | 178 ± 60.8 | 
51 | [Ac]A[Dap(Me)]VPCADFPIWY[Dap(Me)] [BCY00009251] |  | Ki (human CD38 [1]; [4]): 331 nM
52 | ACDWCIDPGVSFCA-Sar6-K(Biotin) [66-10-03-N001] | 3140 | 
53 | ACDYCIRLGLTGCA [Example 66-12-N001] | 520 | 
54 | ACFWLDGECFDLYGGCA [66-08-55-N001] | 105 ± 1.96 | 
55 | ACTPCADFPILTCA [66-03-07-N001] | 257 | 
56 | ACFSLDGECFDLSGECA [66-08-02-N001] | 305 | 
57 | ACDFTMPCQMWEQCA [Example 66-05-N002] | 4060 ± 75.5 | 
58 | ACFELDGECFNIGSKCA [66-08-57-N001] | 1100 ± 44.1 | 
59 | ACTPCADFPIWGCA-Sar6-K(Biot) [Example 66-03-N003] | 833 ± 357 | 
60 | ACFKLDGECFDWTHECA [66-08-06-N001] | 677 | 
61 | ACFELDGECFDLDNQCA [66-08-54-N001] | 477 ± 122 | 
62 | ACFQLDGECFDIYRECA [66-08-17-N001] | 245 | 
63 | ACIFDYDCDAWSACA [Example 66-06-N002] | 7250 | 
64 | ACTWCVDDETWNCA [Example 66-11-N001] | 767 | 
65 | ACFTLDGTCFDWTHECA [66-08-35-N001] | 744 | 
66 | ACYWNPFTACWSCEND [66-50-16-T01-N001] | 90 ± 49 | 

Row | Molecule | Ki (human CD38 [1]; [3]) [nM] | also measured
67 | ACVPCADFPIWYCA [66-03-00-N004] | 35.3 ± 6.55 | 
68 | ACTPCADFPIHTCA [66-03-02-N001] | 995 | 
69 | ACFTLDGECFDWDAECA [66-08-07-N001] | 230 | 
70 | ACVACADFPIWGCA [66-03-08-N001] | 174 | 
71 | ACYWNPFSGCWDCA [66-50-10-N001] | 335 ± 56.8 | 
72 | ACFTLDGECFDWTHECA (three Cys thioether-linked to TBMB scaffold, bicyclic) [66-08-03-N001] |  | Ki (human CD38 [2]): 139 nM
73 | ACFKLDGECFDWTHECA (three Cys thioether-linked to TBMB scaffold, bicyclic) [66-08-06-N001] |  | Ki (human CD38 [2]): 677 nM
74 | ACFSLDGACFDWTHECA (three Cys thioether-linked to TBMB scaffold, bicyclic) [66-08-26-N001] |  | Ki (human CD38 [2]): 987 nM
75 | ACFTLDGQCFDWTHECA (three Cys thioether-linked to TBMB scaffold, bicyclic) [66-08-32-N001] |  | Ki (human CD38 [2]): 794 nM
76 | ACFTLDGTCFDWTHECA (three Cys thioether-linked to TBMB scaffold, bicyclic) [66-08-35-N001] |  | Ki (human CD38 [2]): 744 nM
77 | ACFYLDGTCFDWTHECA (three Cys thioether-linked to TBMB scaffold, bicyclic) [66-08-41-N001] |  | Ki (human CD38 [2]): 1200 nM
78 | ACFTLDGACFDWTHECA (three Cys thioether-linked to TBMB scaffold, bicyclic) [66-08-N002] |  | Ki (human CD38 [2]): 1100 nM
79 | ACDYCVRLGLTGCA (three Cys thioether-linked to TBMB scaffold, bicyclic) [66-09-N001] |  | Ki (human CD38 [2]): 1260 nM
80 | ACDYCIRLGLTGCA (three Cys thioether-linked to TBMB scaffold, bicyclic) [66-12-N001] |  | Ki (human CD38 [2]): 520 nM
81 | ACTWCVDDGLSFCA (three Cys thioether-linked to TBMB scaffold, bicyclic) [66-10-N001] |  | Ki (human CD38 [2]): 270 nM
82 | ACTWCVDDETWNCA (three Cys thioether-linked to TBMB scaffold, bicyclic) [66-11-N001] |  | Ki (human CD38 [2]): 767 nM
83 | ACDWCTDNIPGICA (three Cys thioether-linked to TBMB scaffold, bicyclic) [66-13-N001] |  | Ki (human CD38 [2]): 357 nM
84 | ACIRYGDICYDPDHSCA (three Cys thioether-linked to TBMB scaffold, bicyclic) [66-17-01-N001] |  | Ki (human CD38 [2]): 260 nM
85 | ACIRYGDICFHPDYTCA (three Cys thioether-linked to TBMB scaffold, bicyclic) [66-17-N001] |  | Ki (human CD38 [2]): 1170 nM
